# Binding of CDR-mutated scFvs to a peptide of the spike HR2 region

Reference: Li et al. 2023, doi:10.1038/s41467-023-39022-2. File: FLAb, binding data.

Target peptide (SARS-CoV-2 spike, HR2 region): PDVDLGDISGINAS

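The parent was found by panning a naive human phage display library on the peptide. These sequences belong to a second round, designed from the earlier measurements on random variants of the parent. Several design methods are mixed in this list. The scFvs were displayed on barcoded MATa yeast, the peptide on MATalpha yeast. Pairs that bind mate more often; barcode pairs of the diploids are counted by sequencing. Read counts were normalised to the haploid input and turned into Kd by a linear fit to BCL2-family pairs of known affinity, for each replicate. The assay was run in six technical replicates.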

Each scFv is VH, a (GGGGS)3 linker, VL, as in the parent Ab-14, and differs from it in the CDRs of the light chain only.
VH: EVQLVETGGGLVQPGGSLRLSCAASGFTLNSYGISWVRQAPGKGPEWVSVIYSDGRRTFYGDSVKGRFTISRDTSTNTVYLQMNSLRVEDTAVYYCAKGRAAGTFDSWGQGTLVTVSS
VL: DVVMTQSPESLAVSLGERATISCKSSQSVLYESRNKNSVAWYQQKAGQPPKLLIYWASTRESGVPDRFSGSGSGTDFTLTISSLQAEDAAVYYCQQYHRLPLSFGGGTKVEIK

The parent's light chain CDRs are KSSQSVLYESRNKNSVA, WASTRES, QQYHRLPLS; each variant's own CDRs replace them letter for letter.
The read-out is the apparent dissociation constant on a log10 scale (nM): the lower, the stronger.
Averages over replicates are reported, and they cover detected replicates only.
A pair that was not seen in any replicate is written "nd"; this usually means weak binding, but a binder can also be missed.
In the paper, a design with two or fewer of six values counts as a poor binder.
Values of this round are not directly comparable with the first-round values of the same sequences.
Nonspecific signal, from three strains lacking the peptide, appeared in 4% of pairings of all light chain designs, centred on 2.64 (5% of these signals below 1.59); values are not corrected for it. The control count says in how many pairings with the empty strains this scFv gave a signal.

| CDR-L1 | CDR-L2 | CDR-L3 | mean log10 Kd (nM) | replicates with signal | signal with controls |
|---|---|---|---|---|---|
| KSSISELYESENKNSVA | EASQRES | QQYHRLPLS | 0.69 | 6/6 | 0/18 |
| KISQSILFMSGMKNAIA | QMEMREE | QQYNRLPLS | 1.02 | 6/6 | 0/18 |
| KSSQSDLYESRNKNSVA | HASTREQ | QQYHRLPLS | 0.02 | 6/6 | 0/18 |
| KSSQMFLYESRNKNSVA | WASTRES | QQYHRLPLS | 2.51 | 1/6 | 0/18 |
| IFEQGQWNGQQNHNAMA | NGHTRMQ | QQYFKLPLV | 0.87 | 6/6 | 2/18 |
| KLRMITGYESRNKDSIA | DNSTRGR | QQYHRLPLS | 1.16 | 6/6 | 2/18 |
| KFSQSVLYESRNKNSVA | NASTRMS | QQYHRLPLS | -0.17 | 6/6 | 2/18 |
| KISQSVLQESRNKNSVA | DASTRES | QQYHRLPLS | -0.31 | 6/6 | 3/18 |
| IVSQLMMWGMVAKNSIA | EAVTRIN | QQYDRLPLF | 1.18 | 5/6 | 1/18 |
| KLMGSMLYEQRMTNSVA | QASVRMS | QQYHRLPLS | 0.38 | 6/6 | 1/18 |
| KLPQSWLYESRNKNSVA | NASTRLS | QQYHRLPLS | 0.06 | 6/6 | 0/18 |
| KLGAVTEYEMRNKNSVA | QMTTRES | QQYHRLPLS | -0.19 | 6/6 | 0/18 |
| HCSQSVWQEERQKNSVA | NASTREQ | QQYHRLPLS | 0.45 | 6/6 | 0/18 |
| KVSQFMRGLTQRKDSIA | DNNTRSN | QQYDRLPLS | 1.94 | 3/6 | 0/18 |
| HVSEMIFAQSKMRNSVA | ENSTREA | QQYDRLPLS | 2.68 | 5/6 | 1/18 |
| MFSQLMEYGSRYRNSVA | QASTRED | QQYHWLPLS | 0.98 | 6/6 | 0/18 |
| TLSQVTHSESRNKNSIA | EMVTREV | QQYDRLPLS | 0.67 | 6/6 | 1/18 |
| KLPQSVLYESRNKNNVA | AASTRES | QQYHRLPLS | -0.32 | 6/6 | 0/18 |
| MLGMTVMQGMYSRNSVA | QEETRAD | QQYHHLPLS | 0.98 | 6/6 | 1/18 |
| DFSQSWLYESRNKNSVA | GASTRES | QQYHRLPLS | 0.14 | 6/6 | 0/18 |
| KSSQSVLYESRNKNSVA | WASTREL | QQYHRLPLF | nd | 0/6 | 0/18 |
| KLMEQGGHSMDHANNIA | EVDMLAQ | QQYMHLPLI | 0.40 | 6/6 | 2/18 |
| MSSQSVLYESRNKNSVA | WASQRES | QQYHRLPLS | 1.67 | 1/6 | 0/18 |
| KWSQSVLMESTNPNSVA | KASTRES | QQYHRLPLS | 0.49 | 6/6 | 0/18 |
| KQSISDLMESRNKNSVA | DASTRES | QQYHRLPLS | 0.31 | 6/6 | 0/18 |
| ILSQMLMTAGNKHNSVA | QANYRES | QQYHRLPLS | 1.59 | 6/6 | 1/18 |
| KLSMLWPMLSRNHNSVA | SASTRES | QQYHRLPLS | 0.80 | 6/6 | 1/18 |
| QISLNGWDGEPYEYAVA | EGSIADA | QQYHRLPLS | 1.97 | 1/6 | 0/18 |
| KSSPSGLYESRNKNSVA | EASTRES | QQYHRLPLS | -0.06 | 6/6 | 0/18 |
| KLVNFMNRGTHHTSNIA | DAQNRND | QQYARLPLA | 1.03 | 6/6 | 1/18 |
| TISQSYMMENQFKNSVA | QASTRES | QCYDRLPLS | 0.96 | 6/6 | 2/18 |
| KFFQSVLYEQRNQNNVA | SASTRED | QQYHRLPLS | -0.32 | 6/6 | 0/18 |
| KFSQSVLYESRNNKSVA | WASTREQ | QQYHRLPFS | 1.49 | 6/6 | 1/18 |
| KLSWSVEYEDRLSNSVA | NASQREW | QQYHRLPLS | 0.13 | 6/6 | 2/18 |
| KSSQSWLYESRNKNSVA | NADTRES | QQYHRLPLS | nd | 0/6 | 0/18 |
| HITYGMYVHGRYKSNIA | QAETREK | QQYDRLPLM | 0.70 | 6/6 | 2/18 |
| HLYQSELYESRWKNSVA | NASTRLH | QQYHRLPLS | 1.43 | 6/6 | 2/18 |
| KLSQSVEYESRNKNSVA | NASQREQ | QQYHRLPLS | -0.02 | 6/6 | 0/18 |
| KLYQSMLYESRNKNSVA | NASTRES | QQYHRLPLS | 1.82 | 6/6 | 0/18 |
| KLQQSPLYESRNKNSVA | NASTRMS | QQYHRLPLS | -0.44 | 6/6 | 0/18 |
| HMRHEFYGYDNYDQAVA | HANQRLN | QQYSRLPFS | 0.74 | 6/6 | 0/18 |
| KSSTSVLFESRNKNSVA | DYSTRES | QQYHRLPLS | 0.66 | 6/6 | 3/18 |
| HLSQSELYESRNKNSVA | NASKRES | QQYHRLPLS | 0.16 | 6/6 | 2/18 |
| SMGWAHENGDNKMNNIA | DTTHLAY | QQYSRLPIT | 0.60 | 6/6 | 0/18 |
| KVSESEEYESRWKNSVA | NASYRES | QQYHRLPLS | 0.45 | 6/6 | 1/18 |
| KISYQYRYEQLSKNSIA | EAQTRLK | QQYHRLPLS | 1.02 | 6/6 | 1/18 |
| MLSDTVMQGSYSRNSVA | QEQTRAE | QQYHHLPLS | 0.68 | 6/6 | 0/18 |
| KFAIDLEVGIQHLNHVA | EASHTRY | QQYSRLPLT | 0.85 | 6/6 | 0/18 |
| KITYVGESMHLKEDSIA | DQECRED | QQYDRLPLS | 2.13 | 3/6 | 0/18 |
| MISQVMNMLTHTGNNVA | DLAERED | QQYFRLPLS | 2.02 | 2/6 | 0/18 |
| KQSQQDDYQSRNKNQVA | NASTRYS | QQYHRLPLS | 0.38 | 6/6 | 0/18 |
| KLGCGVLYESRNKNSVA | GASTRES | QQYHRLPLS | -0.51 | 6/6 | 2/18 |
| KSSQSWLYEDRNKNSVA | WASTRES | QQYHRLSLS | nd | 0/6 | 0/18 |
| KIHELGKGNIKTANNIA | QTDIRMS | QSYNRLPLS | 0.68 | 6/6 | 3/18 |

Picked from the list: the 5 lowest averages where every replicate gave a value.

| CDR-L1 | CDR-L2 | CDR-L3 | mean log10 Kd (nM) | replicates with signal | signal with controls |
|---|---|---|---|---|---|
| KLGCGVLYESRNKNSVA | GASTRES | QQYHRLPLS | -0.51 | 6/6 | 2/18 |
| KLQQSPLYESRNKNSVA | NASTRMS | QQYHRLPLS | -0.44 | 6/6 | 0/18 |
| KLPQSVLYESRNKNNVA | AASTRES | QQYHRLPLS | -0.32 | 6/6 | 0/18 |
| KFFQSVLYEQRNQNNVA | SASTRED | QQYHRLPLS | -0.32 | 6/6 | 0/18 |
| KISQSVLQESRNKNSVA | DASTRES | QQYHRLPLS | -0.31 | 6/6 | 3/18 |